Biological target: T1, HmuF (Fusobacterium nucleatum, UniProt Q8RFD5)
T1 construct: gene C7Y58_06900
Assay: biochemical

Sequences of proteins named here, by UniProt entry; tags and fusion partners are left off.
UniProt Q8RFD5, entry or part of it: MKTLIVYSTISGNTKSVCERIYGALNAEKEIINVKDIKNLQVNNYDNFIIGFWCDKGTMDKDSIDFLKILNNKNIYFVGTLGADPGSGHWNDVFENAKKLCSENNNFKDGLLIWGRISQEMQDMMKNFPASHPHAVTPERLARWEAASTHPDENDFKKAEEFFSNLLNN

C=CC1=C(C)C2=Cc3c(C=C)c(C)c4[n]3[Fe]([Cl])[n]3c(c(C)c(CCC(=O)O)c3=CC3=NC(=C4)C(C)=C3CCC(=O)O)=CC1=N2 [Fe^3+-hemin]
Kd: 9.1 ± 4.7 nM

From PMC10404700, “A new member of the flavodoxin superfamily from Fusobacterium nucleatum that functions in heme trafficking and reduction of anaerobilin” (The Journal of Biological Chemistry, 2023)
